Measurements reported in ChEMBL document CHEMBL1132372, “The opioid mu agonist/delta antagonist DIPP-NH(2)[Psi] produces a potent analgesic effect, no physical dependence, and less tolerance than morphine in rats” (J Med Chem, 1999).

Protein sequences, listed by entry. Tags and fused reporters are not part of them.
UniProt P33535, whole entry, looked up: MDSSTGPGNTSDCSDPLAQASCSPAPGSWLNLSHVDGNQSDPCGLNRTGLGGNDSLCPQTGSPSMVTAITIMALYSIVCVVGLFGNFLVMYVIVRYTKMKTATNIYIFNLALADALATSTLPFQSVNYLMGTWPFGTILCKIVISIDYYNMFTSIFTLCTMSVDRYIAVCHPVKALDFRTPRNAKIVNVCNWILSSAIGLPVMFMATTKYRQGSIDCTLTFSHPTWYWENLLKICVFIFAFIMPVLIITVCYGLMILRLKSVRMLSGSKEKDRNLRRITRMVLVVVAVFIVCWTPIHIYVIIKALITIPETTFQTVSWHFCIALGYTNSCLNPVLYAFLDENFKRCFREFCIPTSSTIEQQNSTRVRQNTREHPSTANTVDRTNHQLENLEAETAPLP

Each molecule was assayed against Mu-type opioid receptor (Rattus norvegicus) (UniProt P33535) (assay: Ratio of binding affinity towards mu to delta opioid receptors).

Going from CN[C@@H](Cc1c(C)cc(O)cc1C)C(=O)N1Cc2ccccc2C[C@H]1C(=O)N[C@@H](Cc1ccccc1)C(=O)N[C@@H](Cc1ccccc1)C(N)=O to CN[C@@H](Cc1c(C)cc(O)cc1C)C(=O)N1Cc2ccccc2CC1CN[C@@H](Cc1ccccc1)C(=O)N[C@@H](Cc1ccccc1)C(N)=O (stereo partly drawn), the Ratio falls from 10.4 to 1.25.

Work on NC(=O)[C@H](Cc1ccccc1)NC(=O)[C@H](Cc1ccccc1)NCC1Cc2ccccc2CN1C(=O)[C@@H](N)Cc1ccc(O)cc1 (stereo partly drawn) yielded a Ratio of 26.3.
